Tested on: satellite cells
Assay: Satellite cell proliferation screen and dose response, image-based cell count
Set-up: species or system mouse
Settings: retest; DMSO-treated cells 1±0.3 in both trials

CCN(CC)CCNC(=O)c1c(C)[nH]c(/C=C2\C(=O)Nc3ccc(F)cc32)c1C [Sunitinib]
proliferation of the input SMP cells (level): ~4.7±1.4

Source: patent publication US11963964B2, “Small molecules for mouse satellite cell proliferation” (President and Fellows of Harvard College, priority 2011, dated 2024)
